Data on one compound can be found in ChEMBL document CHEMBL1681711, “Discovery of a potent, orally bioavailable pyrimidine VLA-4 antagonist effective in a sheep asthma model” (Bioorg Med Chem Lett, 2011).

Sequences of proteins named here, by UniProt entry; tags and fusion partners are left off.
UniProt P05556, whole entry: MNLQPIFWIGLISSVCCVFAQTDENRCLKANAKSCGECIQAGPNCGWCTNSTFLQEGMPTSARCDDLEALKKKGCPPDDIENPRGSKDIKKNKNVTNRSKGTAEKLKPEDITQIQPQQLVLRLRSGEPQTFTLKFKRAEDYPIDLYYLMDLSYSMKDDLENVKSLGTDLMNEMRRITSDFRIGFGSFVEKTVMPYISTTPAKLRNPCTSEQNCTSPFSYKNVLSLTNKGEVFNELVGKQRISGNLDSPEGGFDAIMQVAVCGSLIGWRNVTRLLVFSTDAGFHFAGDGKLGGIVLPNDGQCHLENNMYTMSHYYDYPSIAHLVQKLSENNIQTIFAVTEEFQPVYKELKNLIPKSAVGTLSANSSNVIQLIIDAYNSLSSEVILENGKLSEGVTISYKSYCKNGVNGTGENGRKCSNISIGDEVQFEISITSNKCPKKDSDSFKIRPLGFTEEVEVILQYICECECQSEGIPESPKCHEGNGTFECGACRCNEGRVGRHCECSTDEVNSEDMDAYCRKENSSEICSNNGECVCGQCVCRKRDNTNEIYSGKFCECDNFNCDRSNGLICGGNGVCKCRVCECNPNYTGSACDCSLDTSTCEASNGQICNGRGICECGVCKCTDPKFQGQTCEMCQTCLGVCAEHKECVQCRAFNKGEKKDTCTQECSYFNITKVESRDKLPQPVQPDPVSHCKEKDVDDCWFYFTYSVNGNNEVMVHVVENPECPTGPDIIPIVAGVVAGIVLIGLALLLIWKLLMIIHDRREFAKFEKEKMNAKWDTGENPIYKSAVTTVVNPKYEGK
UniProt P13612, whole entry: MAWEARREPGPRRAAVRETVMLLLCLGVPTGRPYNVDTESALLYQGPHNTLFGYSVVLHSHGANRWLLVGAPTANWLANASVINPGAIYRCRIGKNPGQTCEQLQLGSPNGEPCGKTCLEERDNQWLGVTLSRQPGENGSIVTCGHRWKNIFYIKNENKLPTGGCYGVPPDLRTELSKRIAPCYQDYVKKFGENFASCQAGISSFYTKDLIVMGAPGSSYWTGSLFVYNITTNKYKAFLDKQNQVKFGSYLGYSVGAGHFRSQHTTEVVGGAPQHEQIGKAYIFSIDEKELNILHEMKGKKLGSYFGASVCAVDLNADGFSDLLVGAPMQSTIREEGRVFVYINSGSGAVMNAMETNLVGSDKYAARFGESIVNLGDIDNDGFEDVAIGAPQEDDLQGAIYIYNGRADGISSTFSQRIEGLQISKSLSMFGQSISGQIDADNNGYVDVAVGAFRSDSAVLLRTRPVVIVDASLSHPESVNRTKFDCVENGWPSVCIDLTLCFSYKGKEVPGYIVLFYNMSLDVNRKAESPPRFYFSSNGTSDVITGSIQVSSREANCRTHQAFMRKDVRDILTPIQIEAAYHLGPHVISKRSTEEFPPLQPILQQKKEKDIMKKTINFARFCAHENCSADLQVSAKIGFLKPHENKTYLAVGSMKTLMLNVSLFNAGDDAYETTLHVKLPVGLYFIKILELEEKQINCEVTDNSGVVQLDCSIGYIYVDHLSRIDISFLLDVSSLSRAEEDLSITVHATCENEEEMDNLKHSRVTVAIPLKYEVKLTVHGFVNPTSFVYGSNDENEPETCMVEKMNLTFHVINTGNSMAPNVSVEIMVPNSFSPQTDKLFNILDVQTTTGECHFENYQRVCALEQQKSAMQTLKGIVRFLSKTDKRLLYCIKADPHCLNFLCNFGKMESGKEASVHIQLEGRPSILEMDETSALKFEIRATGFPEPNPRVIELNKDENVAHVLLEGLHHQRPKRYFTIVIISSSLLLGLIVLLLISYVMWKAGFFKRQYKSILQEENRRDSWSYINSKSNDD

The test concerns the target Integrin alpha-4/beta-1 (Homo sapiens, UniProt P05556+P13612). In words: Inhibition of integrin alpha4beta1-mediated Jurkat cell adhesion to VCAM-1 by FACS analysis. The test is classed as cell-based. The method in brief: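 α4β1-positive Jurkat cells were incubated with recombinant soluble VCAM-1, and binding of this ligand was measured by flow cytometry (FACS).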
For orientation: In flow cytometry, cells or beads pass a laser one at a time.

Structures are written as SMILES. pIC50: −log10 of the molar value.

`CCN(CC)c1ncc(-c2c(C)noc2C)c(N[C@@H](Cc2ccc(OC(=O)N(C)C)cc2)C(=O)O)n1`: the pIC50 is > 9.00.

Broadly, the pIC50 is the IC50 on a negative log10 scale, so that one unit is a factor of ten. A low value points to a high IC50.
